Measured values from patent publication US20140302028A1.

What was measured:
[1] = target: recombinant human FcRn (Sino Biological Inc.) (human) (UniProt P55899); experiment: SPR (Biacore T100), human FcRn immobilised, pH 6, two-state model, complex formation; pH 6
[2] = target: recombinant mouse FcRn (R&D Systems) (mouse) (UniProt Q61559); experiment: SPR (Biacore T100), mouse FcRn immobilised, pH 6, two-state model, complex stabilization; pH 6
[3] = target: recombinant mouse FcRn (R&D Systems) (mouse) (UniProt Q61559); experiment: SPR (Biacore T100), mouse FcRn immobilised, pH 6, two-state model, complex formation; pH 6
[4] = target: recombinant human FcRn (Sino Biological Inc.) (human) (UniProt P55899); experiment: SPR (Biacore T100), human FcRn immobilised, pH 6, two-state model; pH 6
[5] = target: recombinant mouse FcRn (R&D Systems) (mouse) (UniProt Q61559); experiment: SPR (Biacore T100), mouse FcRn immobilised, pH 6, two-state model; pH 6
[6] = target: recombinant human FcRn (Sino Biological Inc.) (human) (UniProt P55899); experiment: SPR (Biacore T100), human FcRn immobilised, pH 6, two-state model, complex stabilization; pH 6
[7] = target: recombinant mouse FcRn (R&D Systems) (mouse) (UniProt Q61559); experiment: SPR (Biacore T100), mouse FcRn immobilised, pH 6, two-state model, complex stabilization
[8] = target: recombinant mouse FcRn (R&D Systems) (mouse) (UniProt Q61559); experiment: SPR (Biacore T100), mouse FcRn immobilised, pH 7.5, two-state model
[9] = target: recombinant mouse FcRn (R&D Systems) (mouse) (UniProt Q61559); experiment: SPR (Biacore T100), mouse FcRn immobilised, pH 7.5, two-state model, complex stabilization
[10] = target: recombinant mouse FcRn (R&D Systems) (mouse) (UniProt Q61559); experiment: SPR (Biacore T100), mouse FcRn immobilised, pH 6, two-state model
[11] = target: recombinant mouse FcRn (R&D Systems) (mouse) (UniProt Q61559); experiment: SPR (Biacore T100), mouse FcRn immobilised, pH 6, two-state model, complex formation
[12] = target: recombinant mouse FcRn (R&D Systems) (mouse) (UniProt Q61559); experiment: SPR (Biacore T100), mouse FcRn immobilised, pH 7.5, two-state model, complex formation

koff [1]	kon [1]	ka (Complex Stabilization) [2]	kd (Complex Stabilization) [2]	koff [3]	kon [3]	Kd [4]	Kd [5]	ka (Complex Stabilization) [6]	kd (Complex Stabilization) [6]	ka (Complex Stabilization) [7]	kd (Complex Stabilization) [7]	Kd [8]	ka (Complex Stabilization) [9]	kd (Complex Stabilization) [9]	Kd [10]	kon [11]	kon [12]	Substance
0.335 s⁻¹	2.79e+06 M⁻¹ s⁻¹	0.0011 M⁻¹ s⁻¹	0.0041 s⁻¹	0.0311 s⁻¹	345000 M⁻¹ s⁻¹	52.9 nM	71.2 nM	0.00143 M⁻¹ s⁻¹	0.00158 s⁻¹									anti-TNF human IgG1 antibody with Fc mutations F243A, V264A (heavy chain of SEQ ID NO:25 and light chain of SEQ ID NO:18)
										0.0297 M⁻¹ s⁻¹	0.00026 s⁻¹	0.0132 nM	0.0011 M⁻¹ s⁻¹	3.8e-06 s⁻¹	0.21 nM			anti-TNF human IgG1 antibody with Fc mutations F243A, V264A, M252Y, S254T, T256E, H433K, N434F (heavy chain of SEQ ID NO:17 and light chain of SEQ ID NO:18)
										0.0389 M⁻¹ s⁻¹	0.00024 s⁻¹	0.0316 nM	0.000479 M⁻¹ s⁻¹	7.17e-06 s⁻¹	0.28 nM	1.79e+06 M⁻¹ s⁻¹	516000 M⁻¹ s⁻¹	anti-TNF human IgG1 antibody with Fc mutations M252Y, S254T, T256E, H433K, N434F (heavy chain of SEQ ID NO:26 and light chain of SEQ ID NO:18)
